The record followed here is patent US8481542B2, “Pyridazinyl derivatives as smo inhibitors” (Novartis AG, priority 2008, dated 2013).

Chains of the proteins cited; added tags and fusions are not shown. Residues count along the entry.
UniProt P56726, 33-793 limits assumed: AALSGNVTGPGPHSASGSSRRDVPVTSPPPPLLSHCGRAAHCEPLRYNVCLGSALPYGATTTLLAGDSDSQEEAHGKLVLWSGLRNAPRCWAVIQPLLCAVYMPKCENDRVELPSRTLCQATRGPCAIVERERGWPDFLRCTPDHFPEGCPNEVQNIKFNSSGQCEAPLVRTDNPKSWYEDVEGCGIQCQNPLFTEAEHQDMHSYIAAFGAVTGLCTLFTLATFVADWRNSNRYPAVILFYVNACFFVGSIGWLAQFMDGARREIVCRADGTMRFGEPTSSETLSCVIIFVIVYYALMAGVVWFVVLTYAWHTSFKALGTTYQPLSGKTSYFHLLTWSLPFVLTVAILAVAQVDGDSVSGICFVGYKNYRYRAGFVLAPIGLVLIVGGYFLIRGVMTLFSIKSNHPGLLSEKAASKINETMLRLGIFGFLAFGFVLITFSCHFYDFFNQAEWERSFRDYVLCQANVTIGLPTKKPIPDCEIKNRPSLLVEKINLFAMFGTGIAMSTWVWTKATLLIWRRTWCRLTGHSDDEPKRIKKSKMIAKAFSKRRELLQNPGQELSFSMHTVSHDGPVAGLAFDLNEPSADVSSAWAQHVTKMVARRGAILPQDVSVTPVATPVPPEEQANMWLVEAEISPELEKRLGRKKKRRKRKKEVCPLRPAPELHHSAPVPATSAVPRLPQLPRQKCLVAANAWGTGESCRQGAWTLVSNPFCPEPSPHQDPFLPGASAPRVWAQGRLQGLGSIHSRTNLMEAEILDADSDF
UniProt Q99835, 28-787 limits assumed: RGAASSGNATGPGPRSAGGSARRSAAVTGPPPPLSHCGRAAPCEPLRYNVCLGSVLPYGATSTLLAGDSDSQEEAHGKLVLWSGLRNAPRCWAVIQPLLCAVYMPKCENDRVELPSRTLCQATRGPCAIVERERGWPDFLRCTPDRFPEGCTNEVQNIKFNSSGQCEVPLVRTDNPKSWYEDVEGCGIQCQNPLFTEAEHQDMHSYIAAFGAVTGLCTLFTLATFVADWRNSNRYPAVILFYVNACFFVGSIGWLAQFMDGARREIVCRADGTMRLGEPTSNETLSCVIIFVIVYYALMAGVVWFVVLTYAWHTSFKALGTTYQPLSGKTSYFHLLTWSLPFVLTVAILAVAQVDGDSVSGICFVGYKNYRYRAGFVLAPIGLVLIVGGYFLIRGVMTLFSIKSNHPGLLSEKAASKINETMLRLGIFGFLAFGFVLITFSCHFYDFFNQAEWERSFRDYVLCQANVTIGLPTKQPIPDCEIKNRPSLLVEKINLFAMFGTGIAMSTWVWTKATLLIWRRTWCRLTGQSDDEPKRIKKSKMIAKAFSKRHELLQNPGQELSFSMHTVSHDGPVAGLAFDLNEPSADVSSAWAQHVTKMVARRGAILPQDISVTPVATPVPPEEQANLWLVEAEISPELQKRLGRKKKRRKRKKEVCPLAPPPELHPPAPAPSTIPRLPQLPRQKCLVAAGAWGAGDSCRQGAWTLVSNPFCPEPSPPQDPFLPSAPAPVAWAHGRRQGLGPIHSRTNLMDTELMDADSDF

The structures appear in SMILES notation. pIC50: −log10 of the molar value. Where only a bound is given, the exact number is not on record here.

The first assay concerns Gli-luciferase activity in TMHh12 cells. The assay is described as follows: Reporter gene assay (RGA) in TMHh12 cells, antagonism of Gli-luciferase activity in presence of Smo agonist. In kind it is cell-based. The note with it: read-out: RGA (1 nM Smo agonist) IC50; 1 nM Smo agonist; Table 10, values as ranges. The method, then: Activity of the compounds was evaluated using a reporter gene assay (RGA) in TMHh12 cells. IC50 for antagonism of Gli-luciferase activity was tested in the presence of increasing concentrations of a small molecule agonist which binds to Smo with 1 nM affinity and activates the Hh pathway (Frank-Kamenetsky et al 2002, Journal of Biology 1, 10.1-10.19).
Table 10 lists the IC50 of antagonists determined in the presence of different (1 nM and 25 nM) concentrations of a small agonist of Smoothened (Frank-Kamenetsky et al 2002, Journal of Biology 1, 10.1-10.19).
For orientation: pIC50 means the negative decadic logarithm of the IC50, by convention in mol/L. Take `CCCCOC(=O)c1cnc(N2CCN(c3nnc(-c4cccnc4)c(C)c3C)C[C@H]2C)nc1C(F)(F)F`: the negative logarithm of the IC50 (pIC50) was 9.00 to 10.00.
`CCCCOC(=O)c1cnc(N2CCN(c3nnc(-c4ccc(F)c(C#N)c4)c(C)c3C)CC2)nc1C(F)(F)F`: the pIC50 was 9.00 to 10.00.
Still for that read-out and setting: the value for `CCCCOC(=O)c1cnc(N2CCN(c3nnc(-c4ccc(C(C)C)cc4)c(C)c3C)CC2)nc1C(F)(F)F` was 9.00 to 10.00; that for `CCCCOC(=O)c1cnc(N2CCN(c3nnc(-c4ccncc4)c(C)c3C)C[C@H]2C)nc1C(F)(F)F` was 9.00 to 10.00; that for `CCCCOC(=O)c1cnc(N2CCN(c3nnc(-c4ccc(F)nc4)c(C)c3C)C[C@H]2C)nc1C(F)(F)F` was 9.00 to 10.00.

Staying with this assay, now noted: read-out: RGA (25 nM Smo agonist) IC50; 25 nM Smo agonist; Table 10, values as ranges.
For the compound `CCCCOC(=O)c1cnc(N2CCN(c3nnc(-c4cccnc4)c(C)c3C)C[C@H]2C)nc1C(F)(F)F`, the negative-log IC50 (pIC50) was 9.00 to 10.00.
The same measure, in the same setting: the value for `CCCCOC(=O)c1cnc(N2CCN(c3nnc(-c4ccc(F)c(C#N)c4)c(C)c3C)CC2)nc1C(F)(F)F` was 8.00 to 9.00.
Still for that read-out and setting: the value for `CCCCOC(=O)c1cnc(N2CCN(c3nnc(-c4ccc(C(C)C)cc4)c(C)c3C)CC2)nc1C(F)(F)F` was 8.00 to 9.00; that for `CCCCOC(=O)c1cnc(N2CCN(c3nnc(-c4ccncc4)c(C)c3C)C[C@H]2C)nc1C(F)(F)F` was 8.00 to 9.00.
`CCCCOC(=O)c1cnc(N2CCN(c3nnc(-c4ccc(F)nc4)c(C)c3C)C[C@H]2C)nc1C(F)(F)F`: the negative logarithm of the IC50 (pIC50) is 9.00 to 10.00.

The next assay addresses mouse Smoothened receptor (Mus musculus, UniProt P56726). The assay is described as follows: Smo binding assay, displacement of radio-labeled smoothened agonist, filter binding format (mouse). Particulars: read-out: Mouse Smo bdg., IC50; Table 10, values as ranges.
Regarding `CCCCOC(=O)c1cnc(N2CCN(c3nnc(-c4cccnc4)c(C)c3C)C[C@H]2C)nc1C(F)(F)F`, the pIC50 is 9.00 to 10.00.
`CCCCOC(=O)c1cnc(N2CCN(c3nnc(-c4ccc(F)c(C#N)c4)c(C)c3C)CC2)nc1C(F)(F)F`: the negative-log IC50 (pIC50) is > 10.00.
Same read-out and setting: the value for `CCCCOC(=O)c1cnc(N2CCN(c3nnc(-c4ccc(C(C)C)cc4)c(C)c3C)CC2)nc1C(F)(F)F` was 9.00 to 10.00; that for `CCCCOC(=O)c1cnc(N2CCN(c3nnc(-c4ccncc4)c(C)c3C)C[C@H]2C)nc1C(F)(F)F` was > 10.00; that for `CCCCOC(=O)c1cnc(N2CCN(c3nnc(-c4ccc(F)nc4)c(C)c3C)C[C@H]2C)nc1C(F)(F)F` was > 10.00.

In another assay the target is human Smoothened receptor (Homo sapiens, UniProt Q99835). As to the kind of experiment: Smo binding assay, displacement of radio-labeled smoothened agonist, filter binding format (human). Particulars: read-out: Human Smo bdg., IC50; Table 10, values as ranges.
`CCCCOC(=O)c1cnc(N2CCN(c3nnc(-c4cccnc4)c(C)c3C)C[C@H]2C)nc1C(F)(F)F`: the negative-log IC50 (pIC50) is 9.00 to 10.00.
Turning to `CCCCOC(=O)c1cnc(N2CCN(c3nnc(-c4ccc(F)c(C#N)c4)c(C)c3C)CC2)nc1C(F)(F)F`, the negative logarithm of the IC50 (pIC50) is > 10.00.
Still for that read-out and setting: the value for `CCCCOC(=O)c1cnc(N2CCN(c3nnc(-c4ccc(C(C)C)cc4)c(C)c3C)CC2)nc1C(F)(F)F` was 9.00 to 10.00.
As to `CCCCOC(=O)c1cnc(N2CCN(c3nnc(-c4ccncc4)c(C)c3C)C[C@H]2C)nc1C(F)(F)F`, the pIC50 was > 10.00.
For `CCCCOC(=O)c1cnc(N2CCN(c3nnc(-c4ccc(F)nc4)c(C)c3C)C[C@H]2C)nc1C(F)(F)F`, the pIC50 is 9.00 to 10.00.
